Target: T1, FAM-Ahx-BID/MCL-1 complex (Homo sapiens, UniProt Q07820)
T1 construct: residues 172 – 327; His6-SUMO (N, cleaved yes); made in house; host or cells: E. coli BL21-Gold (pET28a)
Test: Fluorescence anisotropy competition assay, FAM-Ahx-BID/MCL-1
Format: binding
Source text: (1 picture or pasted object on this page, not shown here) […]

Sequences of proteins named here, by UniProt entry; tags and fusion partners are left off. Residues count along the entry.
UniProt Q07820, 172-327: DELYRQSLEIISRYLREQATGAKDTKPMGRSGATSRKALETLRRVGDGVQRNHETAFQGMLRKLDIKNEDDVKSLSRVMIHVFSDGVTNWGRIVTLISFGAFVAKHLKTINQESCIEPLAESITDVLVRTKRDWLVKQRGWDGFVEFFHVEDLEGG

SMILES: CC[C@H](C)[C@H](NC(=O)[C@H](CCCNC(=N)N)NC(=O)[C@H](CCCNC(=N)N)NC(=O)[C@H](CC(C)C)NC(=O)[C@H](CCC(N)=O)NC(=O)[C@H](C)NC(=O)[C@H](C)NC(C)=O)C(=O)NCC(=O)N[C@@H](CC(=O)O)C(=O)N[C@@H](CCCCN)C(=O)N[C@H](C(=O)N[C@@H](CC(N)=O)C(=O)N[C@@H](CC(C)C)C(=O)N[C@@H](CCCNC(=N)N)C(=O)N[C@@H](CCC(N)=O)C(=O)N[C@@H](CCCCN)C(=O)N[C@@H](CC(C)C)C(=O)N[C@@H](CC(C)C)C(=O)N[C@@H](CC(N)=O)C(N)=O)C(C)C [NOXA-B, reference compound]
- IC50: 0.4 ± 0.1 µM
